{"source": "PubChem BioAssay AID575", "about": "(SRMLSC, 2007)", "note": "The entries are a selection whose mix differs from that of the whole data set. Some tests of the compounds listed are not included; inactive here does not mean inactive elsewhere. Activity calls are given as the source filed them.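 How the source made its calls: active means viability at or below 30% in both replicate assays; inconclusive means viability at or below 30% in just one of the two assays; inactive means the rest.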"}
{"test": "HUVEC growth inhibition – cell-based, human, primary screen (AID 575);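 further: 100% = median of untreated cell wells with 0.1% DMSO on each plate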", "conditions": "HUVEC proliferation, CellTiter-Glo luminescence, 72 h; at 10 µM; hits give low values", "summary_of_the_method": "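Test system: HUVEC primary cells. Quantity: 1250 endothelial cells in each well. Dosing: single-point 10 µM, DMSO 0.1% final. Incubation: 72 h treatment at 37 °C. Measured by: CTG luminescence. Control set: DMSO cell controls and MePR drug controls. Plate: collagen-coated 384-well format.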"}
{"compound": "O=C(OC1CN2CCC1CC2)C(CO)(c1ccccc1)c1ccccc1", "note": "(stereo unspecified)", "viability": "inactive: 103%"}
